Assay: Uptake to blood by oral administration
Format: in vivo, ICR mice
Settings: oral (tube); L-DOPA 25 mg/kg or Nano^DOPA 105 mg polymer/kg (127 mmol L-DOPA/kg)

**Q.** With N[C@@H](Cc1ccc(O)c(O)c1)C(=O)O [L-DOPA, 3,4-dihydroxy-L-phenylalanine] as the compound, how does the “initial change in the concentration of L-DOPA in the blood” value read?
**A.** rapidly increased initially

**Q.** What about the “persistence of the concentration of L-DOPA in the blood” value of the same compound?
**A.** rapidly metabolized

Source: patent publication US20220125752A1, “LEVODOPA DERIVATIVE AND USE THEREOF” (UNIVERSITY OF TSUKUBA, priority 2019, published 2022)
